Reference: PMC7723054
The list shows a part of the results.

T1: LIN28A (human?, UniProt Q9H9Z2 1-209)
T1 sequence: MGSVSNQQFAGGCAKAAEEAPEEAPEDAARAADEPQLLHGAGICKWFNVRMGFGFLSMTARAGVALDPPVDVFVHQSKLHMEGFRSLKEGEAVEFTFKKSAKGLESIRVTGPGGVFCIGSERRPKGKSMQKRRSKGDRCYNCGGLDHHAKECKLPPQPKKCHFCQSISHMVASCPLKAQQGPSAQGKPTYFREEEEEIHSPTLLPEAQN

T2: CIRBP (Homo sapiens, UniProt Q14011 1-172)
T2 sequence: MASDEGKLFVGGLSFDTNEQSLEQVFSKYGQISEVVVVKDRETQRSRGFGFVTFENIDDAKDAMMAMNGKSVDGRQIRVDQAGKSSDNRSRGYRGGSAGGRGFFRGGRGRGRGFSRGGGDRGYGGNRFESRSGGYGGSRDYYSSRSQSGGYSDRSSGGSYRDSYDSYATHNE

T3: DHX36 (Homo sapiens, UniProt Q9H2U1 1-1008)
T3 sequence: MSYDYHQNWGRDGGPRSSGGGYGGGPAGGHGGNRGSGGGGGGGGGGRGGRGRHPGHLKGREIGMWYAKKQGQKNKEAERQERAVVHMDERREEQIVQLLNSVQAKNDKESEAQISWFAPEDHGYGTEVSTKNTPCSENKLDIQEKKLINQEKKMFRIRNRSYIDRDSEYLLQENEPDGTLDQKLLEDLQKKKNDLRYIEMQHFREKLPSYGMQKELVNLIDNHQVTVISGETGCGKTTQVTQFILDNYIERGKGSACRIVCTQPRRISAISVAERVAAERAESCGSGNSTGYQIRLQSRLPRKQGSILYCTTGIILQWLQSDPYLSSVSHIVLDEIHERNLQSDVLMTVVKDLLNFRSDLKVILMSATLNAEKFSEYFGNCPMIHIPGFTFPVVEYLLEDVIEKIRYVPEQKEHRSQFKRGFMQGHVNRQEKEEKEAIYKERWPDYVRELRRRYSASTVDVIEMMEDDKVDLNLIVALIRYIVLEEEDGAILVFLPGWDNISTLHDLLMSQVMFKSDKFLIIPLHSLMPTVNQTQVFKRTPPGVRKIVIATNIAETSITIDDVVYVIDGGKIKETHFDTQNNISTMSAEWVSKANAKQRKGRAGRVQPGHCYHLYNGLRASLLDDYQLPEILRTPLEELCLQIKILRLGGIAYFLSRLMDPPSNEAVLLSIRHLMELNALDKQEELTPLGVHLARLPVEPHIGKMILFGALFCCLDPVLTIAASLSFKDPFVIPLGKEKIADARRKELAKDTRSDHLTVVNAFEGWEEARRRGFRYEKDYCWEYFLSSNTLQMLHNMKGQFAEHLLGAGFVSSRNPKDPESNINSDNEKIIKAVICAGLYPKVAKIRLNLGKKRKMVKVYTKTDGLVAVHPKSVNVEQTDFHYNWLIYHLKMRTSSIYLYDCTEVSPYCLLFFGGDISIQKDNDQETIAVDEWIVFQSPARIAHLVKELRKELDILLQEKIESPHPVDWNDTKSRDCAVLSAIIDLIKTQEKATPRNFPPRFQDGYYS

B1: PARIS_ID6 (structured_RNA)
RNA: GGGAAAUGAGGGCAAGGGCCUACAACAAGGUGUACGAAGUUUCAGCGUGACACUGUUUUGUGAGAUGGGUUGAAAGCACGUGCUGCCAAAAUAGAAUAAUGUUGGUCCUCUCCUCAUGUGCCGUGGAACGCUGAAGCUUCGUGCAC
B2: hsa-mir-3972 (structured_RNA)
RNA: GGGAGACUUUGUAAGGCGGUCUUAGGACGGUGUACGAAGUUUCAGCGCAGUCCUGUGGGAAUGAGAGAUGCCAAACUGGACCUGCGCUGAAGCUUCGUGCAC
B3: hsa-mir-194-1 (structured_RNA)
RNA: GGGAUACAUUUGAGGGAGUUGCCACAUAGGUGUACGAAGUUUCAGCUGGACUGUGUACCAAUUUCCAGCUGAAGCUUCGUGCAC
B4: hsa-mir-367 (structured_RNA)
RNA: GGGACCUAGCGGCGAUGGACUGCUUAACGGUGUACGAAGUUUCAGCAACUCUGUUGAAUAUAAAUUGGAAUUGCUGAAGCUUCGUGCAC
B5: hsa-mir-1286 (structured_RNA)
RNA: GGGAACGGUACUGGACUUGAAAUACCGUGGUGUACGAAGUUUCAGCGGCUGCUGGAUUGAAUUAGCUGCAGCUGAAGCUUCGUGCAC
B6: hsa-mir-23c (structured_RNA)
RNA: GGGAAAGGGCUACGGCGAAAGUGUCGUGGGUGUACGAAGUUUCAGCUGAGUGGCAUAAUCAGAGUACAAUUUGAGUCAUGCCCAUACAUCAGCUGAAGCUUCGUGCAC
B7: hsa-mir-3684 (structured_RNA)
RNA: GGGAACAGUGACCUGAGGCCUAAUUGUUGGUGUACGAAGUUUCAGCUUAACAUGUUGAGCAUUACUCAUGUUAGGCUGAAGCUUCGUGCAC
B8: hsa-mir-4650-1_4650-2 (structured_RNA)
RNA: GGGACACUAGCCGGCGCGAAGGUUAAUUGGUGUACGAAGUUUCAGCACCUUCCAAGGCUCAGAAGGUGCUGAAGCUUCGUGCAC
B9: hsa-mir-450b (structured_RNA)
RNA: GGGACACUGGAGUUCUAUGACUAACGCCGGUGUACGAAGUUUCAGCUGAAUAUGUAAUAUAAGUGUAUUGGCUGAAGCUUCGUGCAC
B10: hsa-mir-329-1 (structured_RNA)
RNA: GGGACAUCUCCAAUUCAGCACGACCGGCGGUGUACGAAGUUUCAGCUGUUUCUUUAAUGAGGACGAAACAGCUGAAGCUUCGUGCAC
B11: hsa-mir-877 (structured_RNA)
RNA: GGGCAAAGACAACGGCGCACAAUUUGCUGGUGUACGAAGUUUCAGCAGGGGACACGGGCAAAGACUUGGGGGUUCCUGGGACCCUCAGACGUGUGUCCUCUGCUGAAGCUUCGUGCAC
B12: hsa-mir-4693 (structured_RNA)
RNA: GGGAAGGUGACCAUAGUUAAAUGCGAUCGGUGUACGAAGUUUCAGCGUCACAAAUUCAAAUAAAGUGAGGCUGAAGCUUCGUGCAC
B13: hsa-mir-181c (structured_RNA)
RNA: GGGAAUGUAGGGAUCUCCUCACCGCUGCGGUGUACGAAGUUUCAGCGAGUUUGGGCAGCUCAGGCAAACCGCUGAAGCUUCGUGCAC
B14: hsa-mir-4705 (structured_RNA)
RNA: GGGAAGAAAUUACUGCUGAGUGGGCAGAGGUGUACGAAGUUUCAGCCUGUGAUAACAACUCAGGCUGAAGCUUCGUGCAC
B15: hsa-mir-3192 (structured_RNA)
RNA: GGGAAACAAGGCGCUAUGAAAUGGAUACGGUGUACGAAGUUUCAGCAGUGGAAAAAGUUCUUUUCUUCCUCUGCUGAAGCUUCGUGCAC
B16: hsa-mir-3960 (structured_RNA)
RNA: GGGAAGAUCGACGGAUUGUGCAACAGACGGUGUACGAAGUUUCAGCCGCUAGUAGUGGCGGCUGAAGCUUCGUGCAC
B17: hsa-mir-4442 (structured_RNA)
RNA: GGGAAAAGGCUCAACGUGAUGCUCGAAAGGUGUACGAAGUUUCAGCCGGUGUGCAAAUGUGUGUGUGCGGUGUUAUGCCGGCUGAAGCUUCGUGCAC
B18: hsa-mir-6861 (structured_RNA)
RNA: GGGAAAACAGAAGAGCCAAUCGCCCUUGGGUGUACGAAGUUUCAGCUCCAGGGCUCCUGACACCUGGAGCUGAAGCUUCGUGCAC
B19: hsa-mir-6499 (structured_RNA)
RNA: GGGACGGAAUAGUAGCAGGCAUCGAGCGGGUGUACGAAGUUUCAGCUGCAGUUCUGUUGGGUGACAGCAGCUGAAGCUUCGUGCAC
B20: hsa-mir-4454 (structured_RNA)
RNA: GGGAAGCAGGCUAUAGGCUAAUGACAACGGUGUACGAAGUUUCAGCCCAAAUUUCAUGCGGCUGAAGCUUCGUGCAC
B21: hsa-mir-3201 (structured_RNA)
RNA: GGGAAACGAUAACUGUGUCCGCCAGACCGGUGUACGAAGUUUCAGCAAAUAAGAGGCUAGGAUUGCCUCUUAUUUGCUGAAGCUUCGUGCAC
B22: NEAT1_ParasoR_ID50 (structured_RNA)
RNA: GGGAAACGAAUGAUAAGGUAGAUUCCGUGGUGUACGAAGUUUCAGCGAAAUGUUCUAUUCAGUGGCUUUUAGUAUAUUUGCUAUGUUGUGCAACCAUCGACACUAUCCAUUUCUAGAACUUUUUCGCUGAAGCUUCGUGCAC
B23: hsa-mir-889 (structured_RNA)
RNA: GGGACGAACCUCAAGGGUCCAAGCAUGUGGUGUACGAAGUUUCAGCAUGGUCUCUAUAUUUAUGAUGAUUAAGCUGAAGCUUCGUGCAC
B24: hsa-mir-3689b (structured_RNA)
RNA: GGGAAAGAAUUUGCCGUCGGUGCCACAUGGUGUACGAAGUUUCAGCCUGGGAGGUGUGAUCCCGUGCUUCCUGGGCUGAAGCUUCGUGCAC
B25: hsa-mir-4253 (structured_RNA)
RNA: GGGAUGUACAAUCCUGCCCACGUACGGAGGUGUACGAAGUUUCAGCCCCUAGGACUUACUUGUGCAGGGGCUGAAGCUUCGUGCAC

The binders below were run against T1, LIN28A (assay: FOREST: bead pull-down of RNA structure library v1, barcode microarray; U1A/LIN28A: 20 mM HEPES pH 7.5, 80 mM KCl, 20 mM NaCl, 10% glycerol, 2 mM DTT, 0.1 ug/uL BSA, 4 C; BG4/CIRBP/DHX36: 10 mM Tris-HCl pH 7.5, 100 mM KCl (or LiCl),; high values mean tight binding).

Row | Binder | binding signal
1 | B1 | 0.249 z-score
2 | B2 | 0.273 z-score
3 | B3 | 0.268 z-score
4 | B4 | 0.262 z-score
5 | B5 | 0.304 z-score
6 | B6 | 0.281 z-score
7 | B7 | 0.28 z-score
8 | B8 | 0.282 z-score
9 | B9 | 0.259 z-score
10 | B10 | 0.271 z-score
11 | B11 | 0.266 z-score
12 | B12 | 0.268 z-score
13 | B13 | 0.291 z-score
14 | B14 | 0.266 z-score
15 | B15 | 0.269 z-score
16 | B16 | 0.267 z-score
17 | B17 | 0.268 z-score
18 | B18 | 0.266 z-score
19 | B19 | 0.275 z-score
20 | B20 | 0.25 z-score
21 | B21 | 0.265 z-score
22 | B22 | 0.273 z-score
23 | B23 | 0.252 z-score
24 | B24 | 0.252 z-score
25 | B25 | 0.294 z-score

These binders were tested against T2, CIRBP in the same assay as above.

Row | Binder | binding signal
26 | B1 | 0.169 z-score
27 | B2 | -1.45 z-score
28 | B3 | 0.498 z-score
29 | B4 | -0.448 z-score
30 | B5 | -0.276 z-score
31 | B6 | 2.24 z-score
32 | B7 | 1.13 z-score
33 | B8 | 0.188 z-score
34 | B9 | -0.083 z-score
35 | B10 | 0.321 z-score
36 | B11 | -0.318 z-score
37 | B12 | 1.14 z-score
38 | B13 | 0.209 z-score
39 | B14 | 0.368 z-score
40 | B15 | 2.54 z-score
41 | B16 | 0.958 z-score
42 | B17 | -0.135 z-score
43 | B18 | 1.47 z-score
44 | B19 | 0.368 z-score
45 | B20 | 0.0161 z-score
46 | B21 | 0.964 z-score
47 | B22 | -0.0829 z-score
48 | B23 | 0.0878 z-score
49 | B24 | 0.867 z-score
50 | B25 | -1.27 z-score

These binders were tested against T3, DHX36 in the same assay as above.

Row | Binder | binding signal
51 | B1 | 0.507 z-score
52 | B2 | 0.743 z-score
53 | B3 | -0.316 z-score
54 | B4 | -0.0567 z-score
55 | B5 | 0.346 z-score
56 | B6 | 0.823 z-score
57 | B7 | -0.29 z-score
58 | B8 | 0.911 z-score
59 | B9 | -0.428 z-score
60 | B10 | -0.533 z-score
61 | B11 | 0.877 z-score
62 | B12 | 0.0169 z-score
63 | B13 | 0.0973 z-score
64 | B14 | 0.184 z-score
65 | B15 | 0.534 z-score
66 | B16 | 0.396 z-score
67 | B17 | -0.192 z-score
68 | B18 | -0.632 z-score
69 | B19 | -0.0979 z-score
70 | B20 | -0.508 z-score
71 | B21 | 1.27 z-score
72 | B22 | -1.17 z-score
73 | B23 | -0.429 z-score
74 | B24 | -0.351 z-score
75 | B25 | 0.426 z-score
